Laboratory results from patent US20230414509A1, “HYDROPHOBIC DRUGS IN ORGANIC CORE HIGH DENSITY LIPOPROTEIN (HDL) NANOPARTICLES” (NORTHWESTERN UNIVERSITY, priority 2020, published 2023).

Target: T1, p38γ kinase (Homo sapiens, UniProt P53778)
T1 sequence (P53778 1-367): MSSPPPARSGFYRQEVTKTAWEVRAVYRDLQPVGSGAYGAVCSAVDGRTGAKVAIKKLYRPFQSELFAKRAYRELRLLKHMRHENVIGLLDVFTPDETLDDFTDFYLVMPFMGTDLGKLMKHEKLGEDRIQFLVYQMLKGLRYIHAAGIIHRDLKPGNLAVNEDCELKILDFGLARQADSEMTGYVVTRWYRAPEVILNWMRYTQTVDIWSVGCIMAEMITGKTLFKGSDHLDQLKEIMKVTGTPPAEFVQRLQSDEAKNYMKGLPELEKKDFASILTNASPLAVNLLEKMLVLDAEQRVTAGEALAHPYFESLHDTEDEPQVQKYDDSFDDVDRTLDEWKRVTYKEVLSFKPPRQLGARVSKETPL
Assay: In vitro enzyme kinetics of inhibition of p38γ kinase (time-resolved fluorescence energy transfer)
Format: biochemical
Conditions: competitive inhibition model, ATP-dependent; read-out: Ki specific to p38γ
Source text: FIG. 2A: An ADP-Glo in vitro kinase assay was used to calculate IC50 for PIK75 inhibition of kinas activity of the four p38 isoforms, normalized to DMSO control. Calculated IC50, values (micromole/Liter) are indicated. FIG. 2B: Time-resolved fluorescence energy transfer was used to measure in vitro enzyme kinetics of inhibition of p38γ kinase at indicated concentrations of PIK75. Counts per minute (CPM) corresponds to product formation level. The error bar of the measurements represents standard deviation of triplicate data. Solid lines represent data fitting to the competitive inhibition model. Calculated Ki and Km are indicated. FIG. 2C: Mapping of the CSPs induced by PIK75 binding to p38γ on the docked structure of p38γ in complex with PIK75. […] The residues with the largest line-broadening effects are indicated in red, and those with significant CSPs (>0.05 ppm) are indicated in green with their sidechains shown in stick form. L58 and L170 are within a 3-angstrom distance of PIK75. ANP, an analogue of ATP molecule with extra nitrogen bonds (a non-hydrolyzable ATP analogue); ATP, adenosine triphosphate; SCP, chemical shift perturbation; Ctrl, control; IC50, half maximal inhibitory concentration; Ki enzyme constants for inhibitors; Km, enzyme constants for substrates; M, mol/L; SS, Sezary syndrome. Cutaneous T cell lymphoma (CTCL) is a disfiguring and aggressive cancer. […]

Ki: 0.012 µM
SMILES: Cc1ccc([N+](=O)[O-])cc1S(=O)(=O)N(C)/N=C/c1cnc2ccc(Br)cn12.Cl [F7, PIK75]
